Results reported in patent US20050009840A1 (SUGEN, INC., priority 2003, published 2005).

By UniProt entry, the sequences of proteins in these tests, tags left out. Residues count along the entry.
UniProt P08581, 1078-1345 limits assumed: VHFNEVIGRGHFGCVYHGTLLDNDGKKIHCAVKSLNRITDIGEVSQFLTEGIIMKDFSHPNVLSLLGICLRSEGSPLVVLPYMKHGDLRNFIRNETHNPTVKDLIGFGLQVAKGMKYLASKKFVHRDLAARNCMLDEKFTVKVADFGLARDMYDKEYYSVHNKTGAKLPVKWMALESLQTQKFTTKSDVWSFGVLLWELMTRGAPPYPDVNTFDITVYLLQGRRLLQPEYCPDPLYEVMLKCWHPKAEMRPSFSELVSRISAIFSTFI

These compounds were tested against T1, Met kinase domain (GST fusion protein) (Homo sapiens, UniProt P08581) (assay: Met transphosphorylation assay (ELISA, poly(glu-tyr) substrate);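 further: Cell-free ELISA with plate-bound poly(Glu:Tyr 4:1) phosphorylated by GST-fused Met kinase domain plus ATP and Mn2+, phosphotyrosine detected by anti-phosphotyrosine antibody with HRP and ABTS read-out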).
T1 construct: Purified GST fusion protein containing the Met kinase domain
Format: biochemical
Method: Met Transphosphorylation Assay
• 1. […] PBS, Gibco Catalog # 450-1300EB • 4. 50 mM HEPES • 5. […] TBST Buffer. • 8. 10% aqueous (MilliQue H2O) DMSO. • 9. […] 4× ATP Reaction Mixture: for 10 mL, mix 0.4 mL 1 M manganese chloride and 0.02 mL 0.1 M ATP in 9.56 mL dH2O. • 12. 4× Negative Controls Mixture: for 10 mL, mix 0.4 mL 1 M manganese chloride in 9.6 mL dH2O. • 13. […] 500 mM EDTA. • 15. […] Goat anti-rabbit horseradish peroxidase conjugated antibody, Biosource, Inc. • 18. ABTS Solution: for 1 L, mix 19.21 g citric acid, 35.49 g Na2HPO4 and 500 mg ABTS with sufficient dH2O to make 1 L. • 19. […] 0.2 M HCl Procedure: • 1. […] Block plate with 150 μL of 5% BSA/PBS for 60 min. • 3. […] Add 50 μl of the diluted kinase to all wells. (Purified kinase is diluted with Kinase Dilution Buffer. Final concentration should be 10 ng/well.) • 5. Add 25 μL of the test compound (in 4% DMSO) or DMSO alone (4% in dH2O) for controls to plate. • 6. Incubate the kinase/compound mixture for 15 minutes. • 7. Add 25 μL of 40 mM MnCl2 to the negative control wells. • 8. Add 25 μL ATP/MnCl2 mixture to the all other wells (except the negative controls). Incubate for 5 min. • 9. Add 25 μL 500 mM EDTA to stop reaction. • 10. Wash plate 3× with TBST. • 11. Add 100 μL rabbit polyclonal anti-Ptyr diluted 1:10,000 in Antibody Dilution Buffer to each well. Incubate, with shaking, at room temperature for one hour. • 12. Wash plate 3× with TBST. • 13. […] Add 100 μL per well and incubate at room temperature, with shaking, for one hour. • 14. Wash plate 1× with PBS. • 15. Add 100 μl of ABTS/H2O2 solution to each well. • 16. If necessary, stop the development reaction with the addition of 100 μl of 0.2M HCl per well. • 17.
Nc1ncc(-c2cccc(C(=O)N3CCC(N4CCCC4)CC3)c2)nc1OCc1c(F)ccc(F)c1Cl [II-53, {3-[5-Amino-6-(2-chloro-3,6-difluoro-benzyloxy)-pyrazin-2-yl]-phenyl}-(4-pyrrolidin-1-yl-piperidin-1-yl)-methanone] was tested, and the IC50 was 830 nM. In the case of CN1CCC(NC(=O)c2cccc(-c3cnc(N)c(OCc4c(F)ccc(F)c4Cl)n3)c2)CC1 [II-56, 3-[5-Amino-6-(2-chloro-3,6-difluoro-benzyloxy)-pyrazin-2-yl]-N-(1-methyl-piperidin-4-yl)-benzamide], the IC50 is reported as 900 nM. Compound CC(Oc1nc(-c2cccc(C(=O)N3CCC[C@@H]3CN3CCCC3)c2)cnc1N)c1c(Cl)ccc(F)c1Cl (stereo partly drawn) [II-86, (3-{5-Amino-6-[1-(2,6-dichloro-3-fluoro-phenyl)-ethoxy]-pyrazin-2-yl}-phenyl)-[(2R)-2-pyrrolidin-1-ylmethyl-pyrrolidin-1-yl)-methanone] has an IC50 of 150 nM. CC(Oc1nc(-c2cccc(C(=O)N3CCC[C@H]3CN3CCCC3)c2)cnc1N)c1c(Cl)ccc(F)c1Cl (stereo partly drawn) [II-88, (3-{5-Amino-6-[1-(2,6-dichloro-3-fluoro-phenyl)-ethoxy]-pyrazin-2-yl}-phenyl)-[(2S)-2-pyrrolidin-1-ylmethyl-pyrrolidin-1-yl)-methanone] was tested, and the IC50 was 170 nM.
